Holding throughout (experiment): NCI-60 one-dose screen, 48 h (100 = growth as untreated, 0 = no growth, -100 = all killed)
Holding throughout (details): 10 µM

The subject of experiment [1] is SK-MEL-2 melanoma.
Experiment [2] has as its system EKVX NSCLC.
The subject of experiment [3] is SN12C renal.
Experiment [4] concerns UO-31 renal.
The subject of experiment [5] is TK-10 renal.
The subject of experiment [6] is ACHN renal.
Experiment [7] concerns CAKI-1 renal.
The test system of experiment [8] is A498 renal.
Experiment [9] deals with HL-60(TB) leukemia.
The test system of experiment [10] is CCRF-CEM leukemia.
For experiment [11], the system named is MOLT-4 leukemia.
In experiment [12] the test system is SR leukemia.
For experiment [13], the system named is RPMI-8226 leukemia.
The test system of experiment [14] is OVCAR-8 ovarian.
Experiment [15] deals with OVCAR-5 ovarian.
For experiment [16], the system named is OVCAR-4 ovarian.
The subject of experiment [17] is SK-OV-3 ovarian.
Experiment [18] concerns IGROV1 ovarian.
Experiment [19] deals with OVCAR-3 ovarian.
The subject of experiment [20] is HS 578T breast.

SMILES strings stand for the structures. The list shows a part of the results, in another mix than the full data.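 Compound tested at a single concentration for 48 hours in 96-well plates; a percent growth value below 10 was scored as active.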 The source made the active and inactive calls.

For `N#CC1(Nc2ccccc2)CCN(Cc2ccccc2)CC1`, the growth in [1] is inactive: 90.2%; in experiment [2], inactive: 87.4%; in [3] it was inactive: 92.5%; in [4], inactive: 78.6%; in [5], inactive: 256%; in experiment [6], inactive: 99.4%. Moreover, the growth in experiment [7] is inactive: 68.2%; in experiment [8] it was inactive: 105%; in experiment [9] it was inactive: 159%; in experiment [10] it was inactive: 104%; in experiment [11], inactive: 147%; in [12] it was inactive: 128%. In addition, the growth in experiment [13] was inactive: 106%; in experiment [14], inactive: 109%; in experiment [15] it was inactive: 111%; in [16], inactive: 101%; in [17], inactive: 50.1%; in experiment [18] it was inactive: 91.4%. Moreover, the growth in [19] was inactive: 103%; in experiment [20], inactive: 100%.

In the case of `Cc1cc(O)c(CN(CC(C)Cl)CC(C)Cl)cc1C` (centres undefined), the growth in experiment [1] was inactive: 105%; in [2], inactive: 110%; in [3] it was inactive: 106%; in [4], inactive: 82.3%; in experiment [5], inactive: 114%; in [6] it was inactive: 101%. Besides, the growth in experiment [7] is inactive: 92.6%; in experiment [8], inactive: 129%; in [9] it was inactive: 99.2%; in [10], inactive: 98.9%; in [11] it was inactive: 91.5%; in [12] it was inactive: 91.5%. For the same compound, the growth in experiment [13] was inactive: 107%; in [14] it was inactive: 99.2%; in experiment [15] it was inactive: 106%; in experiment [16], inactive: 107%; in experiment [17] it was inactive: 93.8%; in experiment [18], inactive: 106%. The growth in experiment [19] is inactive: 109%; in [20], inactive: 108%.

In the case of `Cc1cccc(NC2(C#N)CCN(Cc3ccccc3)CC2)c1`, the growth is inactive: 129% in experiment [1]; inactive: 105% in experiment [2]; inactive: 106% in experiment [3]; inactive: 80.1% in experiment [4]; inactive: 114% in [5]; inactive: 91.2% in experiment [6]. For the same compound, the growth was inactive: 94.1% in [9]; inactive: 92.1% in [10]; inactive: 105% in experiment [11]; inactive: 99.5% in [12]; inactive: 97.3% in experiment [13]; inactive: 104% in experiment [14]. Moreover, the growth was inactive: 94.8% in [15]; inactive: 92.7% in experiment [16]; inactive: 92.2% in [17]; inactive: 105% in experiment [18]; inactive: 118% in experiment [19].

On to `ClCCN(CCCl)Cc1nc2cc(Cl)c(Cl)cc2[nH]1`, for which the growth is inactive: 122% in experiment [1]; inactive: 84.9% in experiment [2]; inactive: 53.6% in experiment [3]; inactive: 64.6% in [4]; inactive: 100% in [5]; inactive: 29.9% in experiment [6]. In addition, the growth in [7] was active: 6.62%; in [8] it was inactive: 107%; in experiment [9], inactive: 31%; in experiment [10], inactive: 48.1%; in experiment [11], inactive: 29%; in experiment [12] it was inactive: 16.1%. Further, the growth was inactive: 73.8% in experiment [13]; inactive: 67.6% in experiment [14]; inactive: 126% in experiment [15]; inactive: 95.8% in experiment [16]; inactive: 91.6% in [17]; inactive: 83.5% in [19]. In addition, in experiment [20], the growth was inactive: 91.1%.

Turning to `COc1cccc(N(CCCl)CCCl)c1OC`, the growth in experiment [1] was inactive: 99.5%; in experiment [2], inactive: 92.8%; in experiment [3], inactive: 53.9%; in experiment [4], inactive: 89%; in [5], inactive: 73.4%; in experiment [6], inactive: 22.6%. In addition, the growth in [7] is inactive: 10.1%; in [9] it was inactive: 53.6%; in experiment [10], inactive: 49.1%; in experiment [11], inactive: 34%; in experiment [12], inactive: 31.7%; in [13], inactive: 101%. Besides, the growth was inactive: 78.1% in experiment [14]; inactive: 97.7% in [15]; inactive: 94% in [16]; inactive: 94.3% in experiment [17]; inactive: 84.9% in [18]; inactive: 103% in experiment [19]. Also, in [20], the growth is inactive: 96.5%.

As to `O=C(O)CCc1ccc(CSCCCl)cc1`, the growth is inactive: 102% in experiment [1]; inactive: 101% in experiment [2]; inactive: 94% in experiment [3]; inactive: 95.3% in experiment [4]; inactive: 99.1% in experiment [5]; inactive: 103% in experiment [6]. Also, the growth in experiment [7] was inactive: 94.5%; in experiment [9] it was inactive: 110%; in experiment [10], inactive: 109%; in experiment [11], inactive: 103%; in experiment [12], inactive: 90.4%; in [13] it was inactive: 119%. Moreover, the growth was inactive: 106% in experiment [14]; inactive: 106% in [15]; inactive: 107% in experiment [16]; inactive: 110% in experiment [17]; inactive: 101% in [18]; inactive: 124% in experiment [19]. Also, in experiment [20], the growth was inactive: 104%.

In the case of `ClCCN(CCCl)CCc1ccccc1`, the growth in experiment [1] is inactive: 102%; in [2], inactive: 122%; in [3], inactive: 86.8%; in experiment [4] it was inactive: 86.1%; in experiment [5] it was inactive: 96.7%; in experiment [6] it was inactive: 93.2%. Also, the growth in experiment [7] is inactive: 100%; in experiment [8], inactive: 106%; in experiment [9], inactive: 88%; in experiment [10], inactive: 81.3%; in [11] it was inactive: 73.3%; in experiment [12] it was inactive: 84.7%. In addition, the growth in experiment [13] was inactive: 91.3%; in [14], inactive: 91.1%; in experiment [15], inactive: 97.3%; in experiment [16] it was inactive: 113%; in [17], inactive: 104%; in experiment [18], inactive: 104%. For the same compound, the growth in [19] is inactive: 110%; in experiment [20], inactive: 116%.

Consider `Cc1ccc(NC2(C#N)CCN(Cc3ccccc3)CC2)cc1`, for which the growth in experiment [1] is inactive: 99.6%; in [2], inactive: 90.3%; in experiment [3] it was inactive: 88.6%; in experiment [4], inactive: 81%; in experiment [5] it was inactive: 109%; in experiment [6] it was inactive: 82%. The growth in experiment [7] was inactive: 63.3%; in experiment [8], inactive: 94.8%; in experiment [9], inactive: 105%; in experiment [10], inactive: 92.4%; in experiment [11], inactive: 103%; in experiment [12], inactive: 91.3%. The growth is inactive: 101% in experiment [13]; inactive: 95.7% in experiment [14]; inactive: 105% in experiment [15]; inactive: 93.1% in experiment [16]; inactive: 99.4% in experiment [17]; inactive: 99.1% in [18]. Also, the values for the growth in experiment [19] and in [20] were inactive: 109% and inactive: 144%, respectively.

Source of the values: PubChem BioAssay (NCI).
